According to patent US9145391B2, “Bipyridylaminopyridines as Syk inhibitors” (Merck Sharp & Dohme Corp., priority 2011, dated 2015):

The compounds below were run against recombinant human GST-Syk (Homo sapiens (Human), UniProt P43405) (assay: Homogeneous Time-Resolved Fluorescence (HTRF) assay for the recombinant human Syk enzyme). Settings: read-out: rhSyk IC50, recombinant human GST-Syk 5 pM, ATP 25 μM.
Type: biochemical

SMILES | IC50
Cc1cc(Nc2cc(C(F)(F)F)ccn2)nc(-c2ccc(N3CCN(C(=O)c4ccc5cc[nH]c5c4)CC3)nc2)c1 | 61 nM
Cc1ccnc(Nc2cc(C)cc(-c3ccc(NC4CCNC4=O)nc3)n2)c1 (racemic) | 27 nM
Cc1ccnc(Nc2cc(C)cc(-c3ccc(N4CCCC4C(=O)O)nc3)n2)c1 (racemic) [2-6] | 45 nM
Cc1ccnc(Nc2cc(C)cc(-c3ccc(N4CCC4C(=O)O)nc3)n2)c1 (racemic) [2-7] | 43 nM
Cc1ccnc(Nc2cc(C)cc(-c3ccc(N4CCCC4C(=O)O)nc3)n2)c1 (racemic) [2-13] | 226 nM
Cc1ccnc(Nc2cc(C)cc(-c3ccc(N4CCC4C(=O)O)nc3)n2)c1 (racemic) [2-14] | 234 nM
Cc1cc(Nc2cc(C(F)(F)F)ccn2)nc(-c2ccc([C@@]3(O)CC[C@@H](C(N)=O)C(C)(C)C3)nc2)c1 (relative stereo) | 25 nM
Cc1ccnc(Nc2cc(C)cc(-c3ccc(NC(C)(C)C(=O)O)nc3)n2)c1 [2-15] | 298 nM
